Biological target: T1, PI3Kγ (Homo sapiens, UniProt P48736)
T1 construct: purchased BPS Bioscience, San Diego, CA
Test: PI3K enzyme inhibition assay (ADP-Glo), PI3Kγ
Assay type: biochemical
Conditions: mean ± SD of three experiments

Sequences of proteins named here, by UniProt entry; tags and fusion partners are left off. A change or cut given only in a name is not applied to a line headed by its entry.
UniProt P48736: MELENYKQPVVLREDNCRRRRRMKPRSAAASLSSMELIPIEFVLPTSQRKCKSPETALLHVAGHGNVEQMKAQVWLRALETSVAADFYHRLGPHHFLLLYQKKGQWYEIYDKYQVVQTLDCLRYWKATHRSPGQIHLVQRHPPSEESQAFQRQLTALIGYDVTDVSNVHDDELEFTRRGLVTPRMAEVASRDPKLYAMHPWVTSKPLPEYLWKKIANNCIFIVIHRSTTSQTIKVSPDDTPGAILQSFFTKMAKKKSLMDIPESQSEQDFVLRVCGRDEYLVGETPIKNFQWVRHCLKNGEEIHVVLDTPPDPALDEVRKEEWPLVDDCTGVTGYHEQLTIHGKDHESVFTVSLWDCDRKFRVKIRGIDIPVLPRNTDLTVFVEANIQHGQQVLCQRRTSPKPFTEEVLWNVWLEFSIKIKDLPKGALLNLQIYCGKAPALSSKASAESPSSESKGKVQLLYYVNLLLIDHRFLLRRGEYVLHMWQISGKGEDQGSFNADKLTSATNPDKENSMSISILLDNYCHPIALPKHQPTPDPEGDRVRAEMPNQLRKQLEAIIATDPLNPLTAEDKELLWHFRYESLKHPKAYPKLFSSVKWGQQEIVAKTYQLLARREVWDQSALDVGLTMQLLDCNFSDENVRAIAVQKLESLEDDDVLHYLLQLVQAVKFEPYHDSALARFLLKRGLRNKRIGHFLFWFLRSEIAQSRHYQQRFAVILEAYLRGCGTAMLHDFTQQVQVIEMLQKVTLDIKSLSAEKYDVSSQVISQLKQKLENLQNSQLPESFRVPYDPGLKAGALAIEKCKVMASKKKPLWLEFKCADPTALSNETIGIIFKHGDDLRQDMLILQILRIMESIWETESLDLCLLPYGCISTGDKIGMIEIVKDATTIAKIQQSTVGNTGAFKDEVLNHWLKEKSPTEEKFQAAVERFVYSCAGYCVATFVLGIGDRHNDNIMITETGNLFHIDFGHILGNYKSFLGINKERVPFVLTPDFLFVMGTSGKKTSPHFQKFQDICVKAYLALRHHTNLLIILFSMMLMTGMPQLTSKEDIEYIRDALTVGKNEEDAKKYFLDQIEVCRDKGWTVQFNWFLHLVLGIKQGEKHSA

SMILES: O=c1cc(N2CCOCC2)oc2c(-c3ccccc3)cccc12 [LY294002, reference compound]
- IC50: 15.7 ± 0.81 µM
